## scFv variants of Ab-14 (light chain) against a SARS-CoV-2 spike peptide

Values reported by Li et al. 2023, doi:10.1038/s41467-023-39022-2 (FLAb copy).

The target is the same throughout: PDVDLGDISGINAS, from the HR2 region of SARS-CoV-2 spike.

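The parent was found by panning a naive human phage display library on the peptide. This is the validation round: designs drawn from the data on random variants, tested in the same kind of assay. Group labels follow the data file (En: ensemble of fine-tuned language models; GP: Gaussian process model; HC: hill climbing; Gen: genetic algorithm; Gibbs: Gibbs sampling; a sequence that several methods proposed may carry one label only). In AlphaSeq, yeast of one mating type display the scFv and yeast of the other type display the target. Pairs that bind mate more often; barcode pairs of the diploids are counted by sequencing. Each replicate has its own calibration line, from reference interactions of the BCL2 family. Mating was done six times.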

Ab-14 is the parent antibody, in scFv form: VH, then a 15-residue (Gly4Ser)3 linker, then VL. The heavy chain is unchanged in all variants.
VH: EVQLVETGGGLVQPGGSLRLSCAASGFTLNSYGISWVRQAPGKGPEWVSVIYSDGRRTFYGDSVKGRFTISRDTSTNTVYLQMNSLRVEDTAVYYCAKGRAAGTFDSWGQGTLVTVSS
VL: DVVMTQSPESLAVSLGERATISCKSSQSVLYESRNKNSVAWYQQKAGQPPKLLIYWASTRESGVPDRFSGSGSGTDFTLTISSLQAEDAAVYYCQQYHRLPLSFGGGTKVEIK

Variants are written as CDR1, CDR2 and CDR3 of the light chain (limits as in the source). Parent: KSSQSVLYESRNKNSVA, WASTRES, QQYHRLPLS.
Variants here have more than six changes.
Values are apparent Kd, the geometric mean of the replicates that gave a signal; lower means stronger binding.
As a blank, each scFv also met three strains without target: over all light chain designs, 4% of these pairings were detected, typically at 430 nM and seldom below 38 nM. Also given: how often the same scFv was detected with the empty control strains.
The parent sequence was in this pool as ten entries: three were never detected, three once, and four in most replicates, with averages from 2.2 nM to 240 nM.
The range of this assay differs from that of the first round, and the authors advise against merging the two.
In the paper, a design with two or fewer of six values counts as a poor binder.

Variant MISQLMNMGTFAINSVA / QASIRNS / QQYDRLPLI [En_Gen] showed 10 nM (6 of 6 replicates; controls 2 of 18). Variant QLMQVGGYESNNKNSIA / DLRTREH / QQYHRLPLS [En_HC] gave 4.6 nM (6 of 6 replicates; controls 0 of 18). For KWDQEVDGQSRNKNSVA / QASQREW / QQYHRLPLS [GP_Gibbs], the assay gave 4.2 nM (6 of 6 replicates; controls 0 of 18). Variant KLSFGNLYESRNKNSVA / EASTRCQ / QQYHRLPLS [GP_Gibbs] showed 740 pM (6 of 6 replicates; controls 3 of 18). Variant MLDEYQSYGAANLNAVA / DANCTMF / QQYYRLPLS [En_Gibbs] showed 6.2 nM (6 of 6 replicates; controls 1 of 18). For KIQDNLGELLQQINSVA / STEEKSD / QSYMRLPLS [En_Gibbs], the assay gave 31 nM (6 of 6 replicates; controls 0 of 18). Variant MISDLMLYGSRASNPIA / NASTREY / QQYHRLPLE [En_HC] gave 7.3 nM (6 of 6 replicates; controls 1 of 18). For HLYQSELYESRWKNSVA / NASTRLS / QQYHRLPLS [GP_Gibbs], the assay gave 4.9 nM (6 of 6 replicates; controls 1 of 18). For KLSMSELYESRMCNSVA / EASQREE / QQYHRLPLS [GP_Gibbs], the assay gave 3.5 nM (6 of 6 replicates; controls 0 of 18).

Variant KLMQSVEYESRLANSVA / NASTRLE / QQYHRLPLS [GP_Gibbs] gave 800 pM (6 of 6 replicates; controls 1 of 18). Variant QLLMATMQGNYNRNSVA / HAQTRND / QSYHRLPLS [En_HC] gave 24 nM (6 of 6 replicates; controls 2 of 18). With KFSQQVLYEDRQANSVA / NASQRES / QQYHRLPLS [GP_Gibbs] the result was 1.3 nM (6 of 6 replicates; controls 2 of 18). Variant MISQLMNMGTFAINSVA / QATIRNE / QQYDRLPLA [En_Gen] showed 14 nM (2 of 6 replicates; controls 0 of 18). For KLRQVTGYESYQKNSVA / QTSTRAS / QDYHRLPLS [En_HC], the assay gave 7.1 nM (6 of 6 replicates; controls 1 of 18). For MISNVMNSLTHLGNNVA / DLQERED / QQYFRLPLS [En_Gen], the assay gave 1.7 nM (6 of 6 replicates; controls 0 of 18). For MLDQMDGQMGGNTNNIA / GVVESRI / QQYHRLPLS [En_Gibbs], the assay gave 75 nM (6 of 6 replicates; controls 1 of 18). With KLQQSQLYEWRNMNSVA / NASTREM / QQYHRLPLI [GP_Gibbs] the result was 5.3 nM (6 of 6 replicates; controls 1 of 18). Variant TISQSAQQESHIKNSVA / DLNVRGS / QQYDRLPLS [En_HC] showed 7.6 nM (6 of 6 replicates; controls 0 of 18).

With RYQMDDIEGKTARNNIA / DGAEVYR / QQYARLPLT [En_Gibbs] the result was 12 nM (6 of 6 replicates; controls 0 of 18). For RVSSNLMAGEIHYNAIA / NTKVLEY / QQYMRLPLG [En_Gibbs], the assay gave 2.7 nM (6 of 6 replicates; controls 1 of 18). For KLPQSWLYESQNSNSVA / HASQRMD / QQYHRLPLS [GP_Gibbs], the assay gave 1.3 nM (6 of 6 replicates; controls 1 of 18). Variant KMMNSLGAFKQSEDNVA / EVEQKVA / QQYDHLPLT [En_Gibbs] showed 23 nM (6 of 6 replicates; controls 0 of 18). For KQQCGELYGSRNKNSVA / DASQREE / QQYHRLPLS [GP_Gibbs], the assay gave 1.5 nM (6 of 6 replicates; controls 2 of 18). For KLYQMTLTEGYFKNSVA / QASTREN / QSYHRLPLS [En_HC], the assay gave 4.1 nM (6 of 6 replicates; controls 0 of 18). For MMSQMFEGLSTSKNPVA / QVSTREE / QQYDRLPLS [En_HC], the assay gave 43 nM (5 of 6 replicates; controls 0 of 18). For KVSPSHLYWSRNKNQVA / QANTRET / QQYHRLPLS [GP_Gibbs], the assay gave 110 nM (6 of 6 replicates; controls 1 of 18). With TLSQMSGVEAVKHNNVA / ENSTREK / QQYDRLPLA [En_Gen] the result was 26 nM (5 of 6 replicates; controls 0 of 18).

Variant KARQSNLYEDRNQNSVA / SASQRLT / QQYHRLPLS [GP_Gibbs] showed 1.8 nM (6 of 6 replicates; controls 1 of 18). With QISGITGHMSMLKNNVA / EMVTREN / QQYDRLPLS [En_Gen] the result was 4.2 nM (6 of 6 replicates; controls 0 of 18). Variant TVSQVHEMLSRNKNSVA / DVNTRES / QQYDRLPLS [En_HC] showed 2.5 nM (6 of 6 replicates; controls 1 of 18). With TVSQVHEMLSHNKNSVA / DMNTREK / QQYDRLPLS [En_HC] the result was 10 nM (6 of 6 replicates; controls 1 of 18). For TLYGLSNSMSINKNSVA / EMTTREK / QQYDRLPLM [En_Gen], the assay gave 49 nM (6 of 6 replicates; controls 0 of 18). Variant KISMSVDYMSATHSSVA / QTSTREE / QQYHRLPLS [En_HC] showed 12 nM (6 of 6 replicates; controls 0 of 18). With KITAGMRFEQKASNNIA / EVTQRSK / QQYYRLPLS [En_Gen] the result was 11 nM (6 of 6 replicates; controls 1 of 18). Variant SIRQVTCDNQRTHSNIA / DATQIEP / QQYSRLPLS [En_Gibbs] gave 830 pM (6 of 6 replicates; controls 1 of 18). With KLSQSVEQLERNKNSVA / HASQREV / QQYHRLPLS [GP_Gibbs] the result was 730 pM (6 of 6 replicates; controls 1 of 18).

Variant KLSMLYRYESQEKNSIA / EMSTREE / QSYHRLPLS [En_HC] gave 62 nM (5 of 6 replicates; controls 0 of 18).

For reference, 2 entries of the list once more:

CDR-L1,CDR-L2,CDR-L3,group,Kd (apparent),seen in,signal with controls
RYQMDDIEGKTARNNIA,DGAEVYR,QQYARLPLT,En_Gibbs,12 nM,6 of 6,0 of 18
KWDQEVDGQSRNKNSVA,QASQREW,QQYHRLPLS,GP_Gibbs,4.2 nM,6 of 6,0 of 18